These results are taken from PMC12366525, “Characterization of allosteric modulators that disrupt androgen receptor co-activator protein-protein interactions to alter transactivation–Drug leads for metastatic castration resistant prostate cancer” (SLAS discovery : advancing life sciences R & D, 2023).

Amino acid sequences for entries named in this document (tags omitted). Residues count along the entry.
UniProt P10275, whole entry T878A: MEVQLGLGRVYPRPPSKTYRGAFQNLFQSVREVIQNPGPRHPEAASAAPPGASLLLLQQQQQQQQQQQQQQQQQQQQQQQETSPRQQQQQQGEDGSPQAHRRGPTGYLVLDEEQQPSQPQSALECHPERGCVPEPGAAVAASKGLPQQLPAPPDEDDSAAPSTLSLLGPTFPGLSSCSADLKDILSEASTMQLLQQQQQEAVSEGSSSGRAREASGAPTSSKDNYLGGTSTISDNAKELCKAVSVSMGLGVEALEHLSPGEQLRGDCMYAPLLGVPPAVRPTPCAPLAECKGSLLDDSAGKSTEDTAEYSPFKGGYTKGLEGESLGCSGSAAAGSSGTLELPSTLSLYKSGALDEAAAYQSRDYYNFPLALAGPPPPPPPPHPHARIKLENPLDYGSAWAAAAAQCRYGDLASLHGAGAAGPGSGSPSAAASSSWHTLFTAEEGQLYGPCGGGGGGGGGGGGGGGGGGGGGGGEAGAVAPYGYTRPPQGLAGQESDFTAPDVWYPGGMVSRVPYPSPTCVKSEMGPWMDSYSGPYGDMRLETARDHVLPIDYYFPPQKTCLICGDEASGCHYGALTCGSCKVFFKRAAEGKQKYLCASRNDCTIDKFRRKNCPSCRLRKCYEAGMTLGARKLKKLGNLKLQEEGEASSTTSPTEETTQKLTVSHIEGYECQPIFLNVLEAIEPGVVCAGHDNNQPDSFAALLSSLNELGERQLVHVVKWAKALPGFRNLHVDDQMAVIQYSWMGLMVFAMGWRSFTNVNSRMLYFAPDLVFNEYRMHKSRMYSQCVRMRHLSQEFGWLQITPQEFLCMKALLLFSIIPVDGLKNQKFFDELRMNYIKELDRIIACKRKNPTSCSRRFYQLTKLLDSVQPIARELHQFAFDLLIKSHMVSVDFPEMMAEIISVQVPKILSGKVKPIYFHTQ
UniProt P10275, 663-920 limits assumed: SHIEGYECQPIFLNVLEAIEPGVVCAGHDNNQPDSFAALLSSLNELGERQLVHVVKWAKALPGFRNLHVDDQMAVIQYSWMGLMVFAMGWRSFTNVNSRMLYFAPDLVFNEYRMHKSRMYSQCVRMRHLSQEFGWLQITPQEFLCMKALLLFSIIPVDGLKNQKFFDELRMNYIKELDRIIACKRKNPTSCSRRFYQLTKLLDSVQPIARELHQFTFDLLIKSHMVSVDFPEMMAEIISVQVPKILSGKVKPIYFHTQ

The test system of one data set is U-2 OS cells. The data set is described as follows: AR-TIF2 PPIB cell loss (Hoechst stained nuclei). To be noted: 4.5 h compound exposure.
The target in another data set is full length AR (Homo sapiens, UniProt P10275, T878A). The data set is described as follows: PSA-6.1 luciferase reporter assay in C4–2 CRPC cells. To be noted: read-out: C4–2 PSA6.1-Luc Reporter IC50; C4–2 cells; 50 nM DHT; 24 h.
For a further data set, the system named is DU-145 cells. The data set can be described thus: Prostate cancer cell line growth inhibition assay, DU-145. To be noted: read-out: DU145 GI50 (AR−); 72 h.
A further data set concerns PC-3 cells. The data set can be described thus: Prostate cancer cell line growth inhibition assay, PC-3. To be noted: read-out: PC3 GI50 (AR−); 72 h.
Another data set concerns 22Rv1 cells. The data set can be described thus: Prostate cancer cell line growth inhibition assay, 22Rv1. Conditions: read-out: 22Rv1 GI50 (AR+); 72 h.
The subject of another data set is LNCaP cells. The data set is described as follows: Prostate cancer cell line growth inhibition assay, LNCaP. Conditions: read-out: LNCap GI50 (AR+); 72 h.
In another data set the test system is C4–2 cells. The data set is described as follows: Prostate cancer cell line growth inhibition assay, C4–2. Conditions: read-out: C4–2 GI50 (AR +); 72 h.
Data set [1] concerns PC cell lines positive (LNCaP, C4–2, & 22Rv1 cells) or negative (PC-3 & DU-145) for AR. The data set is described as follows: Prostate cancer cell line growth inhibition assays, panel statements. To be noted: 72 h. It is filed as cell-based.
The target of a further data set is AR-TIF2 PPI (Homo sapiens, UniProt P10275). The data set is described as follows: AR-TIF2 PPI biosensor (PPIB) HCS assay, inhibition of DHT-induced AR-TIF2 PPI formation. Type of data set: cell-based. To be noted: S1 analogs vs S1–1; S3–15 vs S3–14.
For another data set, the system named is HEK 293 cells. The data set is described as follows: M2H viability counter screen. It is filed as cell-based. To be noted: read-out: M2H viability CS GI50; cytotoxicity counter screen. Background: The purpose of a counterscreen is to sort out artefacts and off-target activity.

The term IC50 denotes the concentration at which inhibition is half-maximal. As usually defined, the GI50 is the concentration at which growth is held to half of that of the control. Take `Cc1ccccc1-c1cc(O)c2c(c1)CN(c1cc(N)ncn1)CCO2`: the “AR-TIF2 PPIB Cell Loss” value in the data set on U-2 OS cells is more than 100 µM. In addition, at full length AR, the IC50 came to 32.5 µM. The concentration for 50% growth inhibition (GI50) in the data set with DU-145 cells turned out to be 12.2 µM; in the data set with PC-3 cells, 20.7 µM; in the data set with 22Rv1 cells it was 22.9 µM; with LNCaP cells, 5.01 µM; with C4–2 cells it was 5.12 µM. In addition, the “Cytotoxicity in AR positive relative to AR negative PC cell lines” value in [1] is “equipotent against all 5 PC cell lines”.

With `COc1cc(-c2ccc(C)s2)cc2c1OCCN(c1nc(C(N)=O)cs1)C2`, the “Reduction in relative potency versus parent hit in AR-TIF2 PPIB assay formats” value at AR-TIF2 PPI is given as 4 fold. For the same molecule, the “AR-TIF2 PPIB Cell Loss” value in the data set with U-2 OS cells was more than 100 µM. Further, the GI50 with HEK 293 cells, in the data set with DU-145 cells, in the data set on PC-3 cells, in the data set on 22Rv1 cells, in the data set with LNCaP cells and with C4–2 cells was more than 100 µM in each case. Further, the GI50 in data set [1] (read-out: GI50 in any PC cell line, all 5 PC cell lines, ≥50% growth inhibition not achieved at ≤100 μM) was more than 100 µM. Moreover, on full length AR, the IC50 was 37 µM.
